Laboratory results published in IntAct's records for PubMed 16678108.

B1: FACT complex subunit POB3 (Saccharomyces cerevisiae), Q04636 (parent)
chain: MSTDFDRIYLNQSKFSGRFRIADSGLGWKISTSGGSAANQARKPFLLPATELSTVQWSRGCRGYDLKINTKNQGVIQLDGFSQDDYNLIKNDFHRRFNIQVEQREHSLRGWNWGKTDLARNEMVFALNGKPTFEIPYARINNTNLTSKNEVGIEFNIQDEEYQPAGDELVEMRFYIPGVIQTNVDENMTKKEESSNEVVPKKEDGAEGEDVQMAVEEKSMAEAFYEELKEKADIGEVAGDAIVSFQDVFFTTPRGRYDIDIYKNSIRLRGKTYEYKLQHRQIQRIVSLPKADDIHHLLVLAIEPPLRQGQTTYPFLVLQFQKDEETEVQLNLEDEDYEENYKDKLKKQYDAKTHIVLSHVLKGLTDRRVIVPGEYKSKYDQCAVSCSFKANEGYLYPLDNAFFFLTKPTLYIPFSDVSMVNISRAGQTSTSSRTFDLEVVLRSNRGSTTFANISKEEQQLLEQFLKSKNLRVKNEDREVQERLQTALGSDSDEEDINMGSAGEDDESVDEDFQVSSDNDADEVAEEFDSDAALSDAEGGSDEERPSKKPKVE

Variants of: B1
Details: with rfa1_yeast RFA1, P22336

| Variant | effect of a mutation on the interaction |
| --- | --- |
| MSTDFDRIYLNQSKFSGRFRIADSGLGWKISTSGGSAANQARKPFLLPATELSTVQWSRGCRGYDLKINTKNQGVIQLDGFSQDDYNLIKNDFHRRFNIQVEQREHSLRGWNWGKTDLARNEMVFALNGKPTFEIPYARINNTNLTSKNEVGIEFNIQDEEYQPAGDELVEMRFYIPGVIQTNVDENMTKKEESSNEVVPKKEDGAEGEDVQMAVEEKSMAEAFYEELKEKADIGEVAGDAIVSFQDVFFTTPRGRYDIDIYKNSIRLRGKTYEYKLQHRQIQRIVSLPKADDIHHLLVLAIEPPLRKGQTTYPFLVLQFQKDEETEVQLNLEDEDYEENYKDKLKKQYDAKTHIVLSHVLKGLTDRRVIVPGEYKSKYDQCAVSCSFKANEGYLYPLDNAFFFLTKPTLYIPFSDVSMVNISRAGQTSTSSRTFDLEVVLRSNRGSTTFANISKEEQQLLEQFLKSKNLRVKNEDREVQERLQTALGSDSDEEDINMGSAGEDDESVDEDFQVSSDNDADEVAEEFDSDAALSDAEGGSDEERPSKKPKVE [Q308K] | decreasing interaction |
| MSTDFDRIYLNQSKFSGRFRIADSGLGWKISTSGGSAANQARKPFLLPATELSTVQWSRGCRGYDLKINTKNQGVIQLDGFSQDDYNLIKNDFHRRFNIQVEQREHSLRGWNWGKTDLARNEMVFALNGKPTFEIPYARINNTNLTSKNEVGIEFNIQDEEYQPAGDELVEMRFYIPGVIQTNVDENMTKKEESSNEVVPKKEDGAEGEDVQMAVEEKSMAEAFYEELKEKADIGEVAGDAIVSFQDVFFTTPRGRYDIDIYKNSIRLRGKTYEYKLQHRQIQRIVSLPKADDIHHLLVLAIEPPLRRGQTTYPFLVLQFQKDEETEVQLNLEDEDYEENYKDKLKKQYDAKTHIVLSHVLKGLTDRRVIVPGEYKSKYDQCAVSCSFKANEGYLYPLDNAFFFLTKPTLYIPFSDVSMVNISRAGQTSTSSRTFDLEVVLRSNRGSTTFANISKEEQQLLEQFLKSKNLRVKNEDREVQERLQTALGSDSDEEDINMGSAGEDDESVDEDFQVSSDNDADEVAEEFDSDAALSDAEGGSDEERPSKKPKVE [Q308R] | decreasing interaction |
